This is an account of results in ChEMBL document CHEMBL1131294, “Universal template approach to drug design: polyamines as selective muscarinic receptor antagonists” (J Med Chem, 1998).

The chains behind the UniProt entries cited, without tags or fusion partners. Where a name states a change or a piece, a line headed by the entry shows the natural chain unless it says otherwise.
UniProt P08482: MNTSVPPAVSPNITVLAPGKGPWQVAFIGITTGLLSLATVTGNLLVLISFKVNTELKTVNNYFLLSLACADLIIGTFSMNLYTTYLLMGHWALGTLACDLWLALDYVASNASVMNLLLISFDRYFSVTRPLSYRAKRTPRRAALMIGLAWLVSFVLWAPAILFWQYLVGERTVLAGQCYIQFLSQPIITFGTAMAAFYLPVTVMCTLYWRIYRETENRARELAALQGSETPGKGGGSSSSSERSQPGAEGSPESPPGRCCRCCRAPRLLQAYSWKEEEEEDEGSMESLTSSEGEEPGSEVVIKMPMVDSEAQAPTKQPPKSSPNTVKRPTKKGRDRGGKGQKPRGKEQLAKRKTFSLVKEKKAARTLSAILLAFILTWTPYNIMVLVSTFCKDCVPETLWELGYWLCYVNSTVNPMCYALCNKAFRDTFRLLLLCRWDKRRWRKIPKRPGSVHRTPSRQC

This assay has as its target Muscarinic acetylcholine receptor M1 (Rattus norvegicus, UniProt P08482). In words: Binding affinity for rat cortex Muscarinic acetylcholine receptor M1. Put shortly: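 Rat cerebral cortex homogenate (200 µg protein) competed against 5 nM [3H]pirenzepine. Incubation 2 h at 25 °C in 50 mM sodium phosphate pH 7.4 with 2 mM MgCl2 and 1% BSA. Nonspecific binding defined with 10 µM atropine. Filtration on PEI-soaked glass-fiber filters. Ki by Cheng-Prusoff; at least three experiments, each in triplicate.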

SMILES strings stand for the structures. pKi: −log10 of the molar value.

As to `COc1ccccc1CNCCCCCCNCCCCCCCCNCCCCCCNCc1ccccc1OC` [METHOCTRAMINE], the pKi is 7.38.
